Literature values in US20260240837A1, “Compositions Reducing the Expression or Activity of C1 GALT1 for Treating Ewing Sarcoma” (University of Massachusetts Medical School, priority 2023, published 2026).

Sequences of proteins named here, by UniProt entry; tags and fusion partners are left off. Residues count along the entry.
UniProt P08684, 2-503 limits assumed: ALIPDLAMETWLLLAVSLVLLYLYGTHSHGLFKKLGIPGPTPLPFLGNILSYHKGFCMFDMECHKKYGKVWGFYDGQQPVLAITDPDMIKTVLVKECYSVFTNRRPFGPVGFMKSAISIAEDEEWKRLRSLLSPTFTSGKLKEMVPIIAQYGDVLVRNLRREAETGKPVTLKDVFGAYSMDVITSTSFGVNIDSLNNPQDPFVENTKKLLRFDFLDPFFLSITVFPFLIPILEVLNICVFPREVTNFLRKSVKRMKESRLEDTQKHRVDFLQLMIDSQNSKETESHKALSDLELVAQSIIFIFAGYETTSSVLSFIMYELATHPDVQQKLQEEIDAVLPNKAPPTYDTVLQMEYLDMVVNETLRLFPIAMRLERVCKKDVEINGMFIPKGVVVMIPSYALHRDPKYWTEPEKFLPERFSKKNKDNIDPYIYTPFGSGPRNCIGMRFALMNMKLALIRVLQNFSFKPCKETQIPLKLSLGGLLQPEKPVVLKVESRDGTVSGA

Target: fungal cytochrome P450 CYP3A4 (Homo sapiens, UniProt P08684)
Details: previous studies (Isoherranen et al., 2004); cited from earlier work

CCC(C)n1ncn(-c2ccc(N3CCN(c4ccc(OCC5COC(Cn6cncn6)(c6ccc(Cl)cc6Cl)O5)cc4)CC3)cc2)c1=O (stereo not shown) [ITZ, itraconazole]
inhibition of CYP3A4: potently inhibits
